Columns and labels:
[1] = target: HPK1 (SLP76 phosphorylation at Ser376 in Jurkat and EL-4 cells) (Homo sapiens, UniProt Q92918); assay type: cell-based; conditions: read-out: HPK1 pSLP76 IC50; αCD3/αCD28 Dynabeads stimulated cells, pSLP76 (Ser376) detection
Protocol: Cellular Assay—Phospho-SLP-76 (Ser376).
Inhibition of HPK1 enzymatic activity in cells was determined by detection of SLP76 phosphorylation at Ser376 residue in lysate from Jurkat (human) and EL-4 (mouse) cells. Jurkat and EL-4 cells express both HPK1 and SLP76 naturally. All cells were cultured in RPMI 1640 media containing 10% heat inactivated fetal bovine serum (FBS) and 1×Penicillin-Streptomycin. In either Jurkat or El-4 assay, cells were pre-incubated with test compounds prior to T cell stimulation by respective αCD3/αCD28 Dynabeads™. For detection, plates were read on the Envision and percent inhibition and IC50 were determined by Smart fit in Genedata Analyzer.
For Jurkat cells: 35 μL cell suspension were dispensed at a density of 30,000 cells/well in 384-well plates containing HBSS (Gibco, 14025076)+0.1% BSA). […]
For EL-4.IL2 assay, 50 μL cell suspension at 2×10^6 cells/mL in HBSS were first dispensed into 384-well plates and then 50 nL serial dilutions of test compounds were spotted to each well by an Echo liquid handler. […] For detection, 4 μL prepared HTRF antibody mixture (Cisbio, 63ADK000U) in detection buffer were mixed with 16 μl of cell lysate and plates were incubated at room temperature for 19 hours prior to EnVision reading.

Protein sequences, listed by entry. Tags and fused reporters are not part of them.
UniProt Q92918, whole entry, looked up: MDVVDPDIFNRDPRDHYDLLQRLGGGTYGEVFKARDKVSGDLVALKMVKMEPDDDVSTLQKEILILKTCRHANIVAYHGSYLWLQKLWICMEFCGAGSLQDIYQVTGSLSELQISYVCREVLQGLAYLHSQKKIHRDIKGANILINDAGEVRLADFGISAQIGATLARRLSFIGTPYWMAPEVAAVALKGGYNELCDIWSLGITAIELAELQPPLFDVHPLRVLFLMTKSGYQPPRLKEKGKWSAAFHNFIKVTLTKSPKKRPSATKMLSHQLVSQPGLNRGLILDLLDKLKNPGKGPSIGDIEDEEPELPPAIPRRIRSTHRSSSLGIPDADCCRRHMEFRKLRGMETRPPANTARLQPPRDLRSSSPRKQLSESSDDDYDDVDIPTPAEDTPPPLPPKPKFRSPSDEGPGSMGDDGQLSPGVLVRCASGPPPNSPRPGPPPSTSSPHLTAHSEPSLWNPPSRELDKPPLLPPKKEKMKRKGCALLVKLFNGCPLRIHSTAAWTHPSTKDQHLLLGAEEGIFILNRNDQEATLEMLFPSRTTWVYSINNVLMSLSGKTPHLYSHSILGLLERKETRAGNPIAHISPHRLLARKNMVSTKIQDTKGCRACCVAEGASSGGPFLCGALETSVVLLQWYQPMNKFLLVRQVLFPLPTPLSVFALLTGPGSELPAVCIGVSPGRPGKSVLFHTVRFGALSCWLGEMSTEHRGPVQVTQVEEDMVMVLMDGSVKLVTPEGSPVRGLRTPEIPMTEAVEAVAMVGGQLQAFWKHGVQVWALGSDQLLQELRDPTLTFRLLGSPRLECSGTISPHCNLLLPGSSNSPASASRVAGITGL

[2] = target: full-length human HPK1 (MAP4K1) (Homo sapiens (Human), UniProt Q92918); assay: HPK1 Kinase Assay (Biochemical Assay), ADP-Glo; conditions: GST-HPK1 3.2 nM, 10 μM ATP, MBP substrate, read-out: HPK1 enzymatic IC50
From the text: HPK1 Kinase Assay (Biochemical Assay).
A recombinant fusion protein consisting of full-length human HPK1 (MAP4K1) with an N-terminal Glutatione S-transferase (GST) tag was produced in insect cells Sf21 using the baculovirus expression system. GST-HPK1 protein was purified from cell lysates by glutathione Sepharose affinity chromatography. The assay is run in three continuous steps: 1) the HPK1 enzymatic kinase reaction, 2) an ATP depletion, and 3) the ADP detection, the steps 2 and 3 are performed with ADP-Glo™ Kinase Assay kit from Promega (V9101). Test compounds were prepared by 10-point serial dilution in dimethyl sulfoxide (DMSO) and 100 nL of each dilution was spotted onto a 384-well Optiplate (Perkin Elmer and Cat #6007299) by Labcyte Echo. 5 μL kinase reaction buffer (0.02% Brij-35, 2 mM DTT, 50 mM HEPES pH 7.5, MgCl2 10 mM, BSA 0.01% and O-glycerophosphate 12.5 mM) containing HPK1 (3.2 nM) enzyme was transferred to each well and incubated for 15 minutes at room temperature at 60% humidity. The enzymatic reaction was started by adding 5 μl of Start-Mix (10 μM ATP and 3.235 μM MBP). […] The plate was transferred to a Perkin Elmer EnVision (2104 Multilabel Reader) for luminescence detection and percent inhibition activity and IC50 value were determined using Genedata Screener.

`Cc1c(N2CCc3cnc(Nc4cccc(CN(C)C)c4)nc3C2)cnc2c1NCCO2` [Example 65, N-{3-[(dimethylamino)methyl]phenyl}-7-{8-methyl-1H,2H,3H-pyrido[2,3-b][1,4]oxazin-7-yl}-5H,6H,7H,8H-pyrido[3,4-d]pyrimidin-2-amine] gave an IC50 [1] of 500 to 1000 nM and an IC50 [2] of under 100 nM.

Reference: patent publication US20240025922A1, “TETRAHYDROPYRIDO[3,4-d]PYRIMIDINES AS HPK1 INHIBITORS” (Merck Patent GmbH, priority 2022, published 2024)
